Assay results taken from patent US20240002952A1, “METHOD FOR IN VITRO DIAGNOSIS OF MUCOSITIS IN CANCER PATIENTS UNDERGOING ANTITUMOR THERAPY” (ISTITUTI FISIOTERAPICI OSPITALIERI, priority 2020, published 2024).

Tests used:
[1] = test system: Primary epidermal keratinocytes (HEKa)
[2] = test system: Primary gingival keratinocytes

## cetuximab
[1]
  CC50 Value Primary epidermal keratinocytes (HEKa): Not calculable
[2]
  CC50: 12 µM
